Data published in PubChem BioAssay AID2732 (Emory University Molecular Libraries Screening Center, 2010).
The list shows a part of the results, in another mix than the full data. Some of these compounds have results that are not shown, active ones among them. The source made the active and inactive calls.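 How the source made its calls: active means compounds that reduced the stress-induced luciferase reporter signal by more than about 70% of percent inhibition (limit read from the data); inactive means the rest.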

Assay: blockers of ER-stress CHOP reporter expression – cell-based, unfolded protein response, luciferase reporter, primary screen (AID 2732);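 further: 0% = tunicamycin plus vehicle and 100% = wells without tunicamycin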
Conditions: CHO-K1 CHOP-promoter luciferase, tunicamycin-induced, 15-18 h; at 10 µM; hits give high values

| Compound | inhibition |
| --- | --- |
| C=CCN1CCN(CCOC(=O)C(O)(c2ccccc2)c2ccccc2)CC1 | inactive: 7.36% |
| CCN1CCCC(OC(=O)C2(O)c3ccccc3C=Cc3ccccc32)C1 (configuration not stated) | inactive: 15.6% |
| Cc1ccccc1C(=O)NCC1(N2CCCCC2)CCCCC1 | inactive: 12% |
| CN(C)C1CCCC1OC(=O)C(O)(c1ccccc1)c1ccccc1 (configuration not stated) | inactive: 4.68% |
| CCCCC(CC)C(=O)N1CCN(C/C=C/c2ccccc2)CC1 (configuration not stated) | active: 71.9% |
| CCN(CC)CC(C)C(C)OC(=O)C(O)(c1ccccc1)c1ccccc1 (configuration not stated) | inactive: -0.88% |
| CC(C)N1C(=O)CC2(CCN(CCOC(=O)C(O)(c3ccccc3)c3ccccc3)CC2)C1=O | inactive: 5.15% |
| O=C(NCC1(N2CCCCC2)CCCCC1)c1cc([N+](=O)[O-])ccc1Cl | inactive: -5.67% |
| COc1ccc(Br)c(C(=O)NCC2(N3CCCCC3)CCCCC2)c1 | inactive: 19.7% |
| CN(C)c1cccc(C(=O)NCC2(N(C)C)CCCCC2)c1 | inactive: -18.8% |
| O=C(OC1CN2CCC1CC2)C(CO)(c1ccccc1)c1ccccc1 (configuration not stated) | inactive: -0.22% |
| COc1cccc(C(=O)NCC2(N3CCCCC3)CCCCC2)c1 | inactive: 11% |
